Measurements as given in ChEMBL document CHEMBL5728828, “Substituted carboxamides as inhibitors of WDR5 protein-protein binding” (2021).

Biological target: WD repeat-containing protein 5 (Homo sapiens, UniProt P61964)
Assay: Surface Plasmon Resonance (SPR) Assay: Exemplary compounds of the application were dissolved in 100% DMSO at 10 mM, assayed fresh, and then stored at −20° C. for repeat studies and other experiments. Full length WDR5 with an N-terminal His tag and C-terminal AviTag (Avidity Inc.) was expressed in E. coli with coexpression of BirA to biotin label the protein in vivo. Purification was via Ni-NTA. …
Type: organism-based

CN1CCN(c2c(F)cc(-c3cc(CN4CCOCC4)ccc3F)cc2NC(=O)c2c[nH]c(=O)cc2C(F)(F)F)CC1
Kd: 17 nM
